molecular target: prostanoid EP3 receptors (Homo sapiens, UniProt P43115); assay: binding on prostanoid EP3 receptors (method of Abramovitz et al.); settings: read-out: Activity (EP3 receptor binding, IC50 class)

Sequences of proteins named here, by UniProt entry; tags and fusion partners are left off.
UniProt P43115, whole entry: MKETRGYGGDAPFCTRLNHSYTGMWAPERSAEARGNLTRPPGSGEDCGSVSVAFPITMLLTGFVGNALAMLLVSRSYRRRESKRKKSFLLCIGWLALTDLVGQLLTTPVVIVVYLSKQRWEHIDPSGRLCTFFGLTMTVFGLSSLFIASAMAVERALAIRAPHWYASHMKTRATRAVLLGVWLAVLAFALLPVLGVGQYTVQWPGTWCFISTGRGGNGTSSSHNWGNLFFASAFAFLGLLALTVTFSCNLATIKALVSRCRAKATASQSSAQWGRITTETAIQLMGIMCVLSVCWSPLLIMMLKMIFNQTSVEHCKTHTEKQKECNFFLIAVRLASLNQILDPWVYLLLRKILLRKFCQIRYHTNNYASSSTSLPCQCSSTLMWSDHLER

IC50 [nM]	SMILES
< 1000	CC(C)(Oc1cccc2[nH]cc(Cc3ccc4ccccc4c3)c12)C(=O)NS(=O)(=O)c1cc(Cl)c(Cl)s1
< 1000	Cc1cn(Cc2ccc(Cl)cc2Cl)c2c(/C=C/C(=O)NS(=O)(=O)c3cccs3)cc(F)cc12
1000 to 10000	CN1C(=O)c2[nH]nc(Cc3ccc(Cl)cc3Cl)c2C1/C=C/C(=O)NS(=O)(=O)c1cc(Cl)c(Cl)s1 (centres unmarked)
< 1000	CC12CCCC(CCC(=O)NS(=O)(=O)c3cc(F)c(F)cc3F)=C1N(Cc1ccc(F)c(F)c1)C(=O)C2 (centres unmarked)
< 1000	O=C(/C=C/c1cccc2c1N(Cc1ccc(Cl)cc1Cl)C(=O)C21OCCO1)NS(=O)(=O)c1cc(Cl)c(Cl)s1
< 1000	O=C(/C=C/c1cccc2c1C(Nc1ccc(F)c(F)c1)C(=O)N2)NS(=O)(=O)c1cc(Cl)c(Cl)s1 (centres unmarked)
< 1000	Cc1cn(Cc2ccc(Cl)cc2Cl)c2c(C(=O)NS(=O)(=O)c3cc(Cl)c(Cl)s3)cc(F)cc12
1000 to 10000	CN1C(=O)c2[nH]nc(Cc3ccc(Cl)cc3Cl)c2C1CCC(=O)NS(=O)(=O)c1cc(Cl)c(Cl)s1 (centres unmarked)
< 1000	CC(C)c1cn(Cc2ccc(Cl)cc2Cl)c2c(CCC(=O)NS(=O)(=O)c3cc(Cl)c(Cl)s3)cccc12
< 1000	O=C(COc1cccc2occ([S+]([O-])c3ccc4ccccc4c3)c12)NS(=O)(=O)c1cc(Cl)c(Cl)s1 (centres unmarked)
< 1000	COc1cccc(CN2C(=O)CC3(C)CCCC(CCC(=O)NS(=O)(=O)c4cc(F)c(F)cc4F)=C23)c1 (centres unmarked)
< 1000	CN1C(=O)C(NC(=O)c2ccc3ccccc3c2)c2c(OCC(=O)NS(=O)(=O)c3cc(Cl)c(Cl)s3)cccc21 (centres unmarked)
< 1000	O=C(CCc1cccc2c1C(Cc1ccc3ccccc3c1)C(=O)N2)NS(=O)(=O)c1cc(Cl)c(Cl)s1 (centres unmarked)
< 1000	CN1C(=O)C(Nc2ccc(F)cc2F)c2c(C=CC(=O)NS(=O)(=O)c3cc(Cl)c(Cl)s3)cccc21 (centres unmarked)
< 1000	Cn1cc(/C=C/C(=O)NS(=O)(=O)c2cc(F)c(F)cc2F)c2c(Oc3ccc(Cl)cc3Cl)cccc21
< 1000	CN1C(=O)C(=Nc2ccc(Cl)cc2Cl)c2c(/C=C/C(=O)NS(=O)(=O)c3cc(Cl)c(Cl)s3)cccc21
< 1000	O=C(COc1cccc2occ(Sc3ccc4ccccc4c3)c12)NS(=O)(=O)c1cc(Cl)c(Cl)s1
< 1000	O=C(/C=C/c1cccc2c1N(Cc1ccc(Cl)cc1Cl)C(=O)C2)NS(=O)(=O)c1cccs1
1000 to 10000	Cc1cn(Cc2ccc(Cl)cc2Cl)c2c(C(=O)C(=O)NS(=O)(=O)c3cc(F)c(F)cc3F)cc(F)cc12
< 1000	[2H]C([2H])([2H])c1cn(C([2H])([2H])c2ccc(Cl)cc2Cl)c2c(/C=C/C(=O)NS(=O)(=O)c3cc(Cl)c(Cl)s3)cc(F)cc12
< 1000	CCn1c(Sc2coc3cccc(OCC(=O)NS(=O)(=O)c4cc(Cl)c(Cl)s4)c23)nc2ccccc21
1000 to 10000	O=C(COc1cccc2c1N(Cc1cccc(OC(F)(F)F)c1)C(=O)CO2)NS(=O)(=O)c1cccs1
< 1000	CC12CCCC(/C=C/C(=O)NS(=O)(=O)c3cc(F)c(F)cc3F)=C1N(Cc1ccc(F)c(F)c1)C(=O)C2 (centres unmarked)
1000 to 10000	O=C(COc1cccc2c1N(Cc1cccc(C(F)(F)F)c1)C(=O)CO2)NS(=O)(=O)c1cccs1
< 1000	O=C(/C=C/c1cccc2c1N(Cc1ccc(Cl)cc1Cl)C(=O)C2(F)F)NS(=O)(=O)c1cc(Cl)c(Cl)s1
< 1000	CC(Oc1cccc2[nH]cc(Cc3ccc4ccccc4c3)c12)C(=O)NS(=O)(=O)c1cc(Cl)c(Cl)s1 (centres unmarked)

Source: US7598397B2, “Sulfonamide peri-substituted bicyclics for occlusive artery disease” (deCODE genetics ehf, priority 2004, dated 2009)
